Test results published in patent publication US10736831B2, “Oral care compositions” (Colgate-Palmolive Company, priority 2015, dated 2020).

Tested on: five species mix of representative oral bacterial species
Assay: resazurin cell viability assay (bacterial metabolism/viability)
Settings: aqueous test solutions; incubated 1 hour at 37° C.; resazurin 50 μg/ml; fluorescence 560/590 nm
Experimental: A five species mix of representative oral bacterial species was used to simulate the complex bacterial flora of the oral environment. A bacterial mix comprising Actinomyces viscosus, Lactobacillus casei, Streptococcus oralis, Fusobacteriaum nucleatum and Veillonella parvulal was incubated with the compound under investigation for 1 hour at 37° C., neutralized, washed and stained with 50 μg/ml resazurin solution. When viable bacteria are incubated with resazurin, the blue non-fluorescent dye is reduced by the bacteria to pink fluorescent resorufin. Fluorescence of the test sample is read at 560 nm excitation/590 nm emission and compared to the fluorescence of a standardized mixture of live and dead bacteria to determine the percentage of the initial population that is viable after incubation.
In order to minimize the effects of formula excipients, dilute 1:100 and 1:10 dentifrice slurries of formulations in water were used in the assay. As before, the test compound (as a dilute slurry) was incubated with the bacteria for 1 hour at 37° C., neutralized, washed and stained with 50 μg/ml resazurin solution. The percentage of viable bacteria was then determined.

Substance: zinc coceth sulfate [0.5 wt. % ZCS]
- % bacteria viable following treatment: 10.79%
